Source: patent US5897874A, “Expulsion of material from a delivery device” (R. P. Scherer Corporation, priority 1993, dated 1999)

Assay: Drug release/delivery (pulse) time of capsule in stirred purified water at 37° C., spectrophotometric
Format: physicochemical
Conditions: Example 3; standard deviation of 0.36; nominal delivery time five hours; hydrogel excipient
Excerpt: A coated gelatin capsule of the type shown in FIG. 1 was filled with hydrogel powder prepared as in Example 1 of particle size 425 to 710 microns, and metoclopramide drug included as a separate layer. The hydrogel powder was compacted leaving a 4.5 mm space between the top of the hydrogel layer 10 and the mouth of the body 6. The metoclopramide was placed on top and the body was sealed with a hydrogel plug. […] The nominal delivery time was three hours.
In order to assess the delivery time to release of the drug, each capsule was placed in a liter of purified water at 37° C. stirred with a paddle at 50 rpm. The presence of drug in the water was monitored spectrophotometrically.
The procedure was repeated with a capsule having a hydrogel plug designed to provide a nominal delivery time of five hours. […] The "space" represents the space between the top of the hydrogel layer and the mouth of the body after inclusion of the drug. The space allows insertion of the plug to its correct depth without interference from the hydrogel powder fill. In this case the hydrogel plug was recessed 0.5 mm below the upper end of the neck of the capsule body.
Drug release was monitored spectrophotometrically at 226 nm.

salbutamol sulphate
mean delivery time: 5.57 h
